Here are results for five compounds from EP1200059B1, “SKIN CARE COMPOSITION” (UNILEVER PLC, priority 1999, dated 2001).

Assay [1] deals with T1, lecithin retinol acyl transferase (LRAT) (Bos taurus, UniProt Q9BGL2).
T1 sequence (Q9BGL2 1-230): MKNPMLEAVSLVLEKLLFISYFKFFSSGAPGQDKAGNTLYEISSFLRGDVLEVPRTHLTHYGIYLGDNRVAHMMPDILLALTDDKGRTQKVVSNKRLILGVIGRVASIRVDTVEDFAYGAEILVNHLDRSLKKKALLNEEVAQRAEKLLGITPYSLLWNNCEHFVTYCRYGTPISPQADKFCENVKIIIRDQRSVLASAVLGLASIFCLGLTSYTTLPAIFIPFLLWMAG
Put plainly: in vitro Microsomal Assay of retinol esterification, LRAT catalysed (retinyl laurate formation). The settings on record: for % INHIBITION, LRAT: Table 7, 100 µM; for % INHIB. LRAT: Table 5, 100 μM.

The test system of assay [2] is acyl CoA retinol transferase (ARAT). Put plainly: in vitro Microsomal Assay of retinol esterification, ARAT catalysed (retinyl palmitate formation). As to conditions: Table 5; 10 μM.

Consider Delta methyl ionone, for which the “% INHIBITION, LRAT” value in assay [1] was found to be 10%.
Take Dimethyl ionone: in assay [1], the “% INHIBITION, LRAT” value is listed as 9%.
As to cocoglutamate, in assay [1], the “% INHIB. LRAT” value came out at 0%.
The same measure, in the same setting: with dimethyl cocamine oxide the figure was 0%.
In the case of `CCCCCCCC/C=C\CCCCCCCC1=NCCN1CCO` [oleyl hydroxyethyl imidazoline], the “% INHIB. ARAT” value in assay [2] turned out to be 14%.
